Reference: patent US7799753B2, “Bisubstrate inhibitors of protein tyrosine kinases as therapeutic agents” (Board of Governers for Higher Education, priority 2004, dated 2010)

Sequences of proteins named here, by UniProt entry; tags and fusion partners are left off.
UniProt P12931, whole entry, species assumed: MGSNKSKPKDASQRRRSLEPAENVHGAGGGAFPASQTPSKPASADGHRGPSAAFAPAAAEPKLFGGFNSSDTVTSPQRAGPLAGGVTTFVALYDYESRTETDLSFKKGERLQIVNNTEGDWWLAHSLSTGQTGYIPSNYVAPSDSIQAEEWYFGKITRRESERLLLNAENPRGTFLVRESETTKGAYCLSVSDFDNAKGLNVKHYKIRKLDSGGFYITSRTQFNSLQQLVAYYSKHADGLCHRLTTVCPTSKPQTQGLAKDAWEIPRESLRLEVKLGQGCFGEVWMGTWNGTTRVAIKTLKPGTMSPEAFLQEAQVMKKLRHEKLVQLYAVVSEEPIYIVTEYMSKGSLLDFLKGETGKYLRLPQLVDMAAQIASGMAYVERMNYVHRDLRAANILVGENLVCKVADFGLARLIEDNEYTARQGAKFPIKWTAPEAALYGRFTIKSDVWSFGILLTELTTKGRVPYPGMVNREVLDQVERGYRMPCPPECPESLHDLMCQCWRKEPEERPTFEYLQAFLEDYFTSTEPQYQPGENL

Target: Src (Homo sapiens, UniProt P12931)
Experiment: Radioactive kinase assay, polyE4Y phosphorylation by Src (peptides, N-heteroaromatics and conjugates)
Type: biochemical
Settings: modified peptide analogs; read-out: IC50 (μM), Src kinase inhibitory potency (Table 1)

Row | IC50 [µM] | Structure (SMILES)
1 | 211 | CC[C@H](C)[C@H](N)C(=O)N[C@@H](Cc1ccc(O)cc1)C(=O)N[C@@H](CCCCN)C(=O)N[C@@H](Cc1ccc(O)cc1)C(=O)N[C@@H](Cc1ccc(O)cc1)C(=O)O [Compound 81, IYKYY]
2 | > 100 | CC[C@H](C)[C@H](NC(=O)[C@H](CS)NC(C)=O)C(=O)N[C@@H](Cc1ccc(O)cc1)C(=O)N[C@@H](CCCCN)C(=O)N[C@@H](Cc1ccc(O)cc1)C(=O)O [Compound 82, Ac-CIYKY]
